Sampled rows, rich in hits. Any-hit rate of the full collection: about 1.3%.
ERG Ets-DNA blk: inhibitors of human ERG Ets domain-DNA interaction | P11308 | fluorescence polarization, His-ERG Ets domain / labelled DNA | Potency, µM (titrated, usually from 76.9 µM), for inactives: top-dose FP activity, negative = inhibition, hits mostly inhibitors | 0.028% of 370,000 active | AID 624246; active means well fitted inhibition curve with a large enough effect in the polarisation, with a control signal flat; inconclusive means small, poorly fitted or top-dose-only effect, or effect the other way, or a change in a side signal; inactive means no such curve, though single readings can be large or run the other way; the % refers to the polarisation;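 further: polarization taken with two DNA probes labelled with fluorescein and Texas red; potency means the concentration at half of the fitted maximal effect; % of control where 0% means no effect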
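His-tagged ERG Ets domain (1 uM in the protein solution; 300mM KCl, 50mM Tris-HCl, 1mM EDTA, 1mM DTT, pH 7.5) received compound, then a probe mix of 5 nM fluorescein-DNA and 100nM Texas-615-DNA. Fluorescence polarization was read for both dyes.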
PINK1 modulator: modulators of PINK1 expression | Potency, µM (highest dose often 76.6 µM), inactives show at the highest dose activation (PINK1 increase), actives largely listed as activators | 0.2% of 410,000 active | PINK1 immunofluorescence, high-content cytometry, 24 h; active means well fitted activation curve with a large enough effect; inconclusive means small, poorly fitted or top-dose-only effect; cell line not stated here; further: potency means the concentration at half of the fitted maximal effect; % of control where 0% means no effect; nearly all actives have a fitted effect of over 65% in size
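Stable cell line treated 24 h with compounds at 5 concentrations (CCCP controls), then fixed and immunostained for PINK1 plus nuclear and cell stains; PINK1 immunofluorescence quantified by laser-scanning microplate cytometry.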
Giardia kill: kills Giardia lamblia. Giardia lamblia trophozoite viability. activity change, % at 7.66 µM, hits read low. 0.15% of 340,000 active. AID 540267; in the data active means activity change below about -80%; inconclusive means between about -30% and that limit;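 further: parasites exposed to compound for two days anaerobically before the ATP read; on the % scale 0 is the no-effect control and ±100 the full control effect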
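Viability, read as ATP luminescence: trophozoites at 100 cells/well, compound added, 48 hrs anaerobic at 37 deg C, then 15-30 min room-temperature development before reading.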
miR-21 reporter: miR-21 reporter, rising signal. HeLa miR-21 FLuc reporter, luciferase, 48 h. Potency, µM (highest dose often 38.3 µM), for the others: at the highest dose reporter change, positive = more light. 340,000 tested, under 10 active. AID 2288; active = well fitted rising curve with a large enough effect; inconclusive = small, poorly fitted or top-dose-only effect; inactive = no such curve, though single readings can be large or run the other way;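 further: % of control where 0% means no effect; miR-21 action dims this reporter so a rising signal means less miR-21 action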
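HeLa miR-21-FLuc reporter line, endogenous miR-21; 2000 cells/well in DMEM/10% FBS; compound titration up to ~40uM final, 48 h, 37 degree Celsius; luciferase detection reagent, 15 min lysis, CCD luminescence.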
PTHR1 ag: agonists of human PTHR1 parathyroid hormone receptor. Q03431. HEK293 GP2 PTHR1 cells, GloSensor cAMP luminescence, 1 h. Potency, µM (series often up to 115 µM), for inactives: at the top dose activation, hits mostly activators. 0.075% of 410,000 active; further: potency means the concentration at half of the fitted maximal effect; nearly all actives have a fitted effect of over 55% in size
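HEK-293-derived GP2 cells expressing PTHR1 and a GloSensor cAMP reporter, 3,000/well, plated overnight, given luciferin plus IBMX (each 0.5 mM as added) for 1 h at 37 °C, then compound for 1 h at 37 °C. Luminescence was read after 15 min at room temperature.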
ALOX12 inh: inhibitors of human 12S-lipoxygenase ALOX12 | AID 1671190 | 1.1% of 580,000 active | Potency, µM (series often up to 108 µM), for the others: top-dose activity change, negative = inhibition, actives largely listed as inhibitors | purified 12hLO, xylenol orange hydroperoxide absorbance; further: potency means the concentration at half of the fitted maximal effect; on the % scale 0 is the no-effect control and ±100 the full control effect
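Hydroperoxide product was detected by ferrous iron/xylenol orange as the 573 to 405 nm absorbance ratio. Arachidonic acid at 40 uM (final) was turned over for 30 min at room temperature by 150 nM human 12hLO, pH 7.0 Hepes buffer, after 15 min compound preincubation.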
Starred values were filed as active, the others as inactive; i = inactive; ? = inconclusive; / = no result; [ ] = remark or other dose. Unless noted, the call rests on the fitted dose curve; in most records, active means well fitted curve in the direction sought with a large enough effect; inconclusive means small, poorly fitted or top-dose-only effect, or another doubt; inactive means no such curve, though single readings can be large; an effect the other way counts as inactive or inconclusive.

The first six entries (preview)
| Molecule | ERG Ets-DNA blk | PINK1 modulator | Giardia kill | miR-21 reporter | PTHR1 ag | ALOX12 inh |
| --- | --- | --- | --- | --- | --- | --- |
| Cc1c(NC2=CC(=O)CC(C)(C)C2)ccc([N+](=O)[O-])c1C | -5% | 1% | ? | 1% | i | -7% |
| C[C@H]1CN([C@@H](C)CO)C(=O)CCCn2nncc2CO[C@@H]1CN(C)C(=O)c1ccccc1 | / | 1% | / | / | -30% | -1% |
| CCOc1ccc(-c2c(=O)n(O)c3ccccc3[n+]2[O-])cc1 | 7% | 2% | 1 | -37% | -9% | 0% |
| O=C(O)/C(=C\c1ccc(Br)cc1)Sc1nc2ccccc2s1 | / | / | / | / | / | 8.9µM* |
| Brc1ccc(CSc2nc3ccccc3s2)cc1 | / | / | / | / | / | -1% |
| Cc1ccc(S[C@@H](CCN2CC[C@H](C)CCC2=O)c2ccccc2)cc1 | -3% | -1% | 5 | 8% | -85% | ? |

This part in full (from the top)
| Molecule | ERG Ets-DNA blk | PINK1 modulator | Giardia kill | miR-21 reporter | PTHR1 ag | ALOX12 inh |
| --- | --- | --- | --- | --- | --- | --- |
| Cc1c(NC2=CC(=O)CC(C)(C)C2)ccc([N+](=O)[O-])c1C | -5% | 1% | ? | 1% | i | -7% |
| C[C@H]1CN([C@@H](C)CO)C(=O)CCCn2nncc2CO[C@@H]1CN(C)C(=O)c1ccccc1 | / | 1% | / | / | -30% | -1% |
| CCOc1ccc(-c2c(=O)n(O)c3ccccc3[n+]2[O-])cc1 | 7% | 2% | 1 | -37% | -9% | 0% |
| O=C(O)/C(=C\c1ccc(Br)cc1)Sc1nc2ccccc2s1 | / | / | / | / | / | 8.9µM* |
| Brc1ccc(CSc2nc3ccccc3s2)cc1 | / | / | / | / | / | -1% |
| Cc1ccc(S[C@@H](CCN2CC[C@H](C)CCC2=O)c2ccccc2)cc1 | -3% | -1% | 5 | 8% | -85% | ? |
| Cc1ccc(S[C@@H](CCN2CC[C@H](O)CCC2=O)c2ccccc2)cc1 | -9% | 0% | -19 | -4% | -2% | 35µM* |
| Cc1ccc2c(c1)N(CC(=O)N(Cc1ccc3c(c1)OCO3)CC1CCCO1)C(=O)C(C)O2 (stereo not given) | -1% | -6%[38.3 µM] | 2 | -2% | -8% | ? |
| COc1ccccc1CCNC(=O)CCCNc1nc(Cl)nc2nc[nH]c12 | / | / | / | / | / | 57% |
| Cc1ccc(O)c(C(=O)N(C)Cc2c(F)cccc2Cl)c1 | / | / | / | / | / | 40µM* |
| Cc1ccc(CCNC(=O)c2sc3ncccc3c2-n2cccc2)cc1 | 0% | 5% | / | 0% | -7% | -5% |
| COc1ccc(-c2nnc(NC(=O)c3ccc([N+](=O)[O-])o3)o2)c(OC)c1 | -9% | 4% | -100* | 4% | -9% | 433% |
| Cc1ccc(-c2nnc(NC(=O)C3=COCCO3)o2)c(C)c1 | 1% | -1% | -25 | / | -4% | 12% |
| Cc1ccc(-c2nnc(NC(=O)c3ccc([N+](=O)[O-])o3)o2)c(C)c1 | 10% | -8% | -81* | / | -23% | ? |
| Cc1ccc(NC(=O)c2ccc([N+](=O)[O-])o2)c(C)c1 | -7% | -1% | -90* | 11% | -37% | -5% |
| CCC(=O)N1Cc2ccccc2CC2(CCN(CCc3ccc(C)cc3)CC2)C1 | / | / | / | / | / | 35µM* |
| CCC(=O)N1Cc2ccccc2CC2(CCN(Cc3ccc(O)cc3)C2)C1 (stereo not given) | / | / | / | / | / | 12%[6.33 µM] |
| Cn1cc(S(=O)(=O)N2CCCC2)cc1C(=O)NCc1ccccc1 | 5% | 0% | 18 | -4% | i | 7% |
| Cc1ccc(S(=O)(=O)Nc2ccccc2CNc2ccc(Br)cn2)cc1 | 6% | 16µM* | 16 | 0% | -18% | -14% |
| O=C1NC(=O)/C(=C\c2ccc(N3CCOCC3)o2)N1 | -21% | 6% | 1 | 0% | -23% | 20µM* |
| CC(=O)Oc1c(-c2ccc(Br)o2)oc2ccccc2c1=O | -2% | 9% | 12 | -4% | -23% | 35µM* |
| CCCSc1nnc(NC(=O)Nc2ccc(F)cc2)s1 | -6% | 14µM* | -2 | -7% | -52%[57.5 µM] | 0% |
| CCCSc1nnc(NC(=O)Nc2ccc(C)cc2)s1 | -8% | 3% | -20 | -16% | -33% | 110% |
| CCCSc1nnc(NC(=O)Nc2ccccc2)s1 | -10% | 45µM* | -7 | -49% | -27% | 3% |
| CCCSc1nnc(NC(=O)CCc2ccccc2)s1 | -3% | 1% | -11 | 0% | i | 1% |
| CCOC(=O)C1C(=O)C=C(c2ccc(C)cc2)CC1c1cccc(F)c1 (stereo not given) | / | / | / | / | / | -34% |
| COc1ccccc1Cc1c(-c2ccc(C#N)cc2)nc2ccc(Br)cn12 | / | 4% | / | / | ? | 25µM* |
| Fc1ccc(-c2nc3ccc(Cl)cn3c2Cc2ccccc2C(F)(F)F)cc1 | / | 3% | / | / | i | -29% |
| FC(F)(F)c1ccccc1Cc1c(-c2ccc(Cl)cc2)nc2ccc(Cl)cn12 | / | 3% | / | / | i | ? |
| FC(F)(F)c1ccccc1Cc1c(-c2ccc(Cl)cc2)nc2ccc(Br)cn12 | / | 6% | / | / | 4% | 40µM* |
| Fc1ccc(-c2nc3ccc(Br)cn3c2Cc2ccccc2C(F)(F)F)cc1 | / | 3% | / | / | -23% | 18µM* |
| CCCNC(=O)c1ccc(-n2nc(Sc3ccc(Cl)cc3)ccc2=O)cc1 | / | / | / | / | / | -3% |
| O=C(O)c1cccc(NS(=O)(=O)c2cccc(C(=O)Nc3ccccc3[N+](=O)[O-])c2)c1 | 14% | 0% | -15 | 0% | i | 0% |
| COc1ccc(C(=O)Nc2nnc(CC(=O)N/N=C/c3ccc(O)cc3O)s2)cc1 | / | / | / | -14% | / | 65% |
| CCOc1ccc(CCNC(=O)C2CCC(=O)N2C2CCCCC2)cc1OCC (stereo not given) | -4% | 4µM* | 4 | -4% | -13%[57.5 µM] | 5% |
| O=C(NCCc1ccc(Cl)cc1)C1CCC(=O)N1C1CCCC1 (stereo not given) | / | / | -10 | -13% | i | -13% |
| Cc1ccc(C)c(N(C)C(=O)c2cc3c(=O)[nH]c4ccc(C)cc4c3s2)c1 | 0% | 4% | -4 | -9% | i | -8% |
| COc1cccc(NC(=O)CC2Nc3ccccc3NC2=O)c1 (stereo not given) | / | / | / | / | / | 16µM* |
| CCOC(=O)c1c(NC(=O)CC2Nc3ccccc3NC2=O)sc(C)c1C (stereo not given) | 14% | 13µM* | 5 | -19% | i | 66% |
| O=C(CC1Nc2ccccc2NC1=O)Nc1cccc(C(F)(F)F)c1 (stereo not given) | / | / | / | / | / | 7% |
| O=C(CC1Nc2ccccc2NC1=O)Nc1cc(Cl)cc(Cl)c1 (stereo not given) | -3% | 8.9µM* | -11 | -8% | i | 25% |
| CCSc1nsc(NC(=O)Nc2ccc(F)cc2F)n1 | 3% | 22µM* | -10 | 12% | -38% | / |
| O=C(c1ccc(F)cc1)N(C1CCCC1)C1CC1 | / | / | / | / | / | -3% |
| COc1ccc(-c2cc(=O)c3cc(C)ccc3o2)cc1 | / | / | / | / | / | 15% |
| CC(C)Oc1ccc(C(=O)N2CCCCC2CCN2CCCCC2)cc1 (stereo not given) | 1% | 0% | / | 2% | -10% | -7% |
| CC(C)COc1ccc(C(=O)N2CCCCC2CCN2CCCCCC2)cc1 (stereo not given) | / | / | / | / | / | 7.1µM* |
| CS(=O)(=O)N(CC(=O)N1CCOCC1)c1cc(C(F)(F)F)ccc1Cl | 4% | 2% | 13 | -5% | -23% | 0% |
| Cc1sc2nc(SCC(=O)N3CCOCC3)[nH]c(=O)c2c1-c1ccccc1 | 3% | 2% | -9 | -5% | -24% | 32µM* |
| CCCOc1ccc(C(=O)N(Cc2ccccc2Cl)C2CCS(=O)(=O)C2)cc1 (stereo not given) | ? | 0% | / | 3% | i | -13% |
| CC(C)Cn1c(-c2ccc(F)cc2)n[nH]c1=S | -2% | -2% | -7 | -1% | i | ? |

Bioassay records (PubChem)
